Test system: mixture of Actinomyces viscosus, Lactobacillus casei, Streptococcus oralis, Fusobacterium nucleatum, and Veillnoella parvula
Test: Zinc/copper bioavailability assay: bacterial viability by resazurin fluorescence, oral bacterial mixture

Question: For Cu2O, which “% viable” value (Table 6, 0.5% elemental copper in deionized water) is on record?
Answer: 12.08%

Question: What about the “% viable” value (Table 7, 0.05% elemental copper in deionized water) of the same substance?
Answer: 19.70%
